Source: patent publication US7713559B2, “Amorphous water-soluble calcium citrate salts and method of making and using same” (Kraft Foods Global Brands LLC, priority 2004, dated 2010)

Assays:
[1] = dissolution in water and freedom from haze and sediment at 350 mg calcium per eight fluid ounce serving; type: physicochemical
Excerpt: The solution remained completely free of haze and sediment for at least two days of storage at room temperature. Similar or even better results were obtained from the salts prepared having calcium:citrate mole ratios lower than 2:2, even when dissolved in water at higher concentrations.
These powders, in spite of the sediment produced, would provide very acceptable performance in many, if not most, food applications, including instant beverage mixes and acidified RTD beverages.
This behavior might also be acceptable in some situations (i.e., opaque instant beverage mixes), but appears to represent a practical upper limit for applications that require high levels of soluble calcium and/or require a sediment-free transparent appearance.
As an alternative to freeze drying, an amorphous 2:2 mole ratio calcium citrate salt, using the same ingredients as in Example 1, was also successfully produced via spray drying (i.e., pilot scale drying using standard operating conditions and procedures). In this case, chilled calcium hydroxide and citric acid solutions were combined and rapidly spray dried before solidification or sediment formation could occur. […] In a large scale commercial process, the citric acid and calcium hydroxide (or other suitable reagents) would be beneficially combined just prior to spray drying to limit the potential for solidification or sediment formation.
One batch of the chilled citric acid solution was poured into a mix tank jacketed with cooling water and one batch of calcium hydroxide suspension was added with stirring. […] The clear solution was immediately pumped into a semi-works scale spray dryer, fitted with an atomizing nozzle, at a flow rate of about 0.5 kg per minute. Additional batches of citric acid solution and calcium hydroxide suspension were similarly added to the mix tank as needed to prevent complete emptying. A sample of fine white powder was collected from the spray dryer after ten minutes of operation. […] After a further fifteen minutes, the cooling water was shut off from the jacketed mix tank. […]

[2] = shelf life testing of calcium-fortified RTD beverage; type: physicochemical; conditions: CRYSTAL LIGHT RTD lemon beverage; amounts to provide the same level of calcium
Description: Fortified RTD beverages were formulated with several forms of calcium citrate. The visual appearance, flavor, and stability of the products were evaluated over a seven-month period by an experienced panel. Identical samples of each fortified beverage were prepared for shelf life testing under both ambient (22° C.) and refrigerated (4° C.) storage conditions.
The freeze dried amorphous 2:2 mole ratio calcium citrate salt (17% calcium) of Example 1 was successfully used to fortify a ready-to-drink sugar-free lemon-flavored beverage (CRYSTAL LIGHT®) with 350 mg calcium per eight fluid ounce serving (“excellent source of calcium” level). To formulate the calcium-fortified powdered mix, eight fluid ounces of commercial CRYSTAL LIGHT® RTD beverage mix was mixed thoroughly with 2 g of the freeze dried amorphous 2:2 mole ratio calcium citrate salt.

calcium citrate monohydrate [reference compound]
haze and sediment produced at first, on or soon after addition to water ([1]; 350 mg calcium per eight fluid ounce serving): immediately produced a large amount of coarse, gritty white sediment | time for sediment to completely dissolve ([1]; 350 mg calcium per eight ounce serving, room temperature): several days | dissolution behaviour on addition to water ([1]; freeze dried powders of Example 1 or commercial salts, room temperature water, 350 mg calcium per eight fluid ounce serving): did not completely disperse in water | sediment in fortified RTD beverage upon admixture of the ingredients [2]: noticeable sediment formation
